Results from patent publication US8633206B2, “Pyrrolo[2,3-D]pyrimidine compounds” (Pfizer Inc., priority 2009, dated 2014).

The chains behind the UniProt entries cited, without tags or fusion partners. Where a name states a change or a piece, a line headed by the entry shows the natural chain unless it says otherwise. Residues count along the entry.
UniProt P52333, 781-1124: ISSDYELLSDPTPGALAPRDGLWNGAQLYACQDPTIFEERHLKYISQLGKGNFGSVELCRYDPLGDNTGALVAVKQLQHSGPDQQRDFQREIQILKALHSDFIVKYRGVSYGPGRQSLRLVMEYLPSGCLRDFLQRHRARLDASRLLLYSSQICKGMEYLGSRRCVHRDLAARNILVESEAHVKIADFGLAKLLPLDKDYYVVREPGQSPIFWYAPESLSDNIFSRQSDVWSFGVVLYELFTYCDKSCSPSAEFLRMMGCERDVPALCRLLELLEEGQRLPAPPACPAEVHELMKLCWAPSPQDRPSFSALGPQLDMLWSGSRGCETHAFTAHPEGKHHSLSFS
UniProt O60674, 808-1132: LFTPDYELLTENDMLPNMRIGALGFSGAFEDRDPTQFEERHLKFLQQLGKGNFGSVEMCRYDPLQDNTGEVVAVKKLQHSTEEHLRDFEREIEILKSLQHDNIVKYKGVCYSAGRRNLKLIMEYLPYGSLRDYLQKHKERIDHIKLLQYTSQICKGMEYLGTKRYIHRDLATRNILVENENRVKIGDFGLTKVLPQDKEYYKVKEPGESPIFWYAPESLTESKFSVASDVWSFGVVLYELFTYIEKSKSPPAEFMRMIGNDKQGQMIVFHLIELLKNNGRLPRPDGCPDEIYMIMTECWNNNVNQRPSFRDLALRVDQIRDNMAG
UniProt P23458: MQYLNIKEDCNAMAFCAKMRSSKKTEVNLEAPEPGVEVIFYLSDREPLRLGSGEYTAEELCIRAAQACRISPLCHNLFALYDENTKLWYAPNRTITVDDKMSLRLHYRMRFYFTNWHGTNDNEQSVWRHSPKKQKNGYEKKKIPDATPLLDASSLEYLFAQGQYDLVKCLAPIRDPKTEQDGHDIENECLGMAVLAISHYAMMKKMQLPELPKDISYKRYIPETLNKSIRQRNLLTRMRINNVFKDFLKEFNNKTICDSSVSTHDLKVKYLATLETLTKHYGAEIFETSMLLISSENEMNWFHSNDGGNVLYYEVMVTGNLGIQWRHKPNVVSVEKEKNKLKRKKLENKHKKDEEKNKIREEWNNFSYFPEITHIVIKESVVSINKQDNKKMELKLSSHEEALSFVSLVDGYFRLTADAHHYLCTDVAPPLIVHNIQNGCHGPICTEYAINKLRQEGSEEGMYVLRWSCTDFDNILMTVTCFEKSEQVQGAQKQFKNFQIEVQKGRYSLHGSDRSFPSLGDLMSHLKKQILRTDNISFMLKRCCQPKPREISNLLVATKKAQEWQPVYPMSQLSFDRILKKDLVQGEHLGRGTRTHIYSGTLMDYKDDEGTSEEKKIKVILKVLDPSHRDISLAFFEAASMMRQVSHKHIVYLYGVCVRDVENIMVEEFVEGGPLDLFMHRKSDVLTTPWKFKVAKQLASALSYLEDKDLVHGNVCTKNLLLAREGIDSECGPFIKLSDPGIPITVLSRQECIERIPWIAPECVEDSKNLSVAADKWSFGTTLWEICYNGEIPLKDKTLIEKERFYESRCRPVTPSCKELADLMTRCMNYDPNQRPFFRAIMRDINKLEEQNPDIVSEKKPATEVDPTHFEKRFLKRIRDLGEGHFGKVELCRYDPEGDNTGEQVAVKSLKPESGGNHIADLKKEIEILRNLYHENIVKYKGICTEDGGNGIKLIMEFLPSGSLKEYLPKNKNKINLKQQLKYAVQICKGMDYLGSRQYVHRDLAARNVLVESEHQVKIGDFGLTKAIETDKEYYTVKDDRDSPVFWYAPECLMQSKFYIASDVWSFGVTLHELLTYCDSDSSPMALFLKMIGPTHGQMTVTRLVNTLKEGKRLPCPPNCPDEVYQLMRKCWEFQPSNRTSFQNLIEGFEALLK

Assays:
Format in all cases: biochemical
JAK3 = JAK3 (Homo sapiens (Human), UniProt P52333); experiment: JAK enzymatic assay (peptide mobility shift), JAK3; settings: recombinant JAK3 1 nM, JAKtide peptide, 90 minutes
Experimental: (§1) Recombinant JAK1 (Catalog Number PV4775), JAK2 (Catalog Number PV4210) and JAK3 (Catalog Number PV3855) were purchased from (Invitrogen Corporation, Madison, Wis.). […] Adenosine 5′-triphosphate (ATP) was obtained from (Sigma Chemical Company, St. Louis, Mo.). […] Coating Reagent 3 was purchased from (Caliper Life Sciences, Hopkinton, Mass.).
(§2) Compounds were diluted serially in 100% dimethyl sulfoxide and tested in an 11 point dose response in duplicate or quadruplicate (200 nl of compound/DMSO was added per 10 L reaction). […] The assay was run for 240 minutes for JAK1, 150 minutes for JAK2, 90 minutes for JAK3 and 70 minutes for Tyk2. […] The plates were placed on a LabChip 3000 (LC3000) instrument from (Caliper Life Sciences) to measure the formation of phosphorylated peptide. Data was analyzed using Hits Well Analyzer Software from (Caliper Life Sciences) to obtain the amount of product formed.
(§3) Data was then imported into an internal application where each data point is expressed as % inhibition based on uninhibited and no enzyme controls. Dose-response data is then fit using a 4 parameter logistic equation (Equation 1) to determine an IC50.

JAK2 = JAK2 (Homo sapiens (Human), UniProt O60674); experiment: JAK enzymatic assay (peptide mobility shift), JAK2; settings: recombinant JAK2 2 nM, JAKtide peptide, 150 minutes
Text: Recombinant JAK1 (Catalog Number PV4775), JAK2 (Catalog Number PV4210) and JAK3 (Catalog Number PV3855) were purchased from (Invitrogen Corporation, Madison, Wis.). Tyk2 (His-Tyk2 (888-1182, C936S, C1142S)) used in this study was expressed and purified at Pfizer Laboratories. Adenosine 5′-triphosphate (ATP) was obtained from (Sigma Chemical Company, St. Louis, Mo.). […] Coating Reagent 3 was purchased from (Caliper Life Sciences, Hopkinton, Mass.).
A peptide mobility shift assay was used to quantify the phosphorylation of the JAKtide (JAK2 and JAK3) or the IRS-1 peptide (JAK1 and Tyk2). Reactions were carried out in a 384-well plate (Matrical MP-101) in a 10 L total volume. […] Compounds were diluted serially in 100% dimethyl sulfoxide and tested in an 11 point dose response in duplicate or quadruplicate (200 nl of compound/DMSO was added per 10 L reaction). The reactions were initiated by the addition of enzyme to the final concentration of 2 nM JAK2, 1 nM JAK3, 12 nM Tyk2 or 20 nM JAK1. The assay was run for 240 minutes for JAK1, 150 minutes for JAK2, 90 minutes for JAK3 and 70 minutes for Tyk2. […] Data was analyzed using Hits Well Analyzer Software from (Caliper Life Sciences) to obtain the amount of product formed.
Data was then imported into an internal application where each data point is expressed as % inhibition based on uninhibited and no enzyme controls. […]

JAK1 = JAK1 (Homo sapiens (Human), UniProt P23458); experiment: JAK enzymatic assay (peptide mobility shift), JAK1; settings: recombinant JAK1 20 nM, IRS-1 peptide, 240 minutes
Experimental: as §1, §2, §3

| IC50 (JAK3) [µM] | IC50 (JAK2) [µM] | IC50 (JAK1) [µM] | SMILES |
| --- | --- | --- | --- |
| 0.163 |  |  | CN(c1ncnc2[nH]ccc12)[C@H]1CC[C@H](CS(=O)(=O)N2CC[C@@H](O)C2)CC1 [Example 1] |
|  | 0.0438 |  | CN(c1ncnc2[nH]ccc12)[C@H]1CC[C@H](CS(=O)(=O)N2CCC(CO)CC2)CC1 [Example 2, (1-((Trans-4-(methyl(7H-pyrrolo[2,3-d]pyrimidin-4-yl)amino)cyclohexyl)-methylsulfonyl)piperidin-4-yl)methanol] |
| 1.19 | 0.0625 | 0.0111 | CCN[C@@H](C)[C@@H]1CCN(S(=O)(=O)C[C@H]2CC[C@H](N(C)c3ncnc4[nH]ccc34)CC2)C1 [Example 27, N-{trans-4-[({(3R)-3-[(1S)-1-(ethylamino)-ethyl]pyrrolidin-1-yl}-sulfonyl)methyl]cyclohexyl}-N-methyl-7H-pyrrolo[2,3-d]pyrimidin-4-amine] |
